Experimental data taken from patent US8975265B2, “Substituted imidazo[1,2-a]pyrimidines and —pyridines” (Bayer Intellectual Property GmbH, priority 2010, dated 2015).

Chains of the proteins cited; added tags and fusions are not shown. Lines headed by an entry give the natural chain unless they say otherwise; changes in a name come on top.
UniProt P31749: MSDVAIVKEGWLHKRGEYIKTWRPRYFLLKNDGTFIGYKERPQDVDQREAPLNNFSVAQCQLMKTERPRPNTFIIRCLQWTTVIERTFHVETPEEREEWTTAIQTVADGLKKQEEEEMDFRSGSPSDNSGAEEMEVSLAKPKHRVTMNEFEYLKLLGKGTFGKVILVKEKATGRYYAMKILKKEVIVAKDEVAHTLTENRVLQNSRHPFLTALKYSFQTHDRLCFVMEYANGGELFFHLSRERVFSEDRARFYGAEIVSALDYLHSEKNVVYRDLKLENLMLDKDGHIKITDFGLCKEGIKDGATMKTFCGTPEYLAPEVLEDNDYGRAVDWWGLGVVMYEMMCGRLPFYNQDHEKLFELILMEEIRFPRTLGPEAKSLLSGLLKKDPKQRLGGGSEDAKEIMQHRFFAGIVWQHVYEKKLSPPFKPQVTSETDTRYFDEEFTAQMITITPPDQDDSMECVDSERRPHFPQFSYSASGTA

Columns and labels:
[1] = molecular target: His-tagged human recombinant kinase full-length Akt1 (Homo sapiens (Human), UniProt P31749); assay: Akt1 kinase assay (TR-FRET); format: biochemical; conditions: 10 μM ATP; read-out: Akt1, median IC50
Method: Biological Assay 1.0: Akt1 Kinase Assay
Akt1 inhibitory activity of compounds of the present invention was quantified employing the Akt1 TR-FRET assay as described in the following paragraphs.
As substrate for the kinase reaction the biotinylated peptide biotin-Ahx-[…] (C-terminus in amide form) was used which can be purchased e.g. from the company Biosynthan GmbH (Berlin-Buch, Germany).
For the assay 50 nl of a 100 fold concentrated solution of the test compound in DMSO was pipetted into a black low volume 384 well microtiter plate (Greiner Bio-One, Frickenhausen, Germany), 2 μl of a solution of Akt1 in assay buffer [50 mM TRIS/HCl pH 7.5, 5 mM MgCl2, 1 mM dithiothreitol, 0.02% (v/v) Triton X-100 (Sigma)] were added and the mixture was incubated for 15 min at 22° C. to allow prebinding of the test compounds to the enzyme before the start of the kinase reaction. […] The concentration of Akt1 in the assay was adjusted depending of the activity of the enzyme lot and was chosen appropriate to have the assay in the linear range, typical enzyme concentrations were in the range of about 0.05 ng/μl (final conc. in the 5 μl assay volume).
The resulting mixture was incubated 1 h at 22° C. to allow the binding of the biotinylated phosphorylated peptide to the streptavidine-XL665 and the antibodies. Subsequently the amount of phosphorylated substrate was evaluated by measurement of the resonance energy transfer from the anti-mouse-IgG-Eu-Chelate to the streptavidine-XL665.

[2] = tested on: KPL-4 breast cancer cell line; assay: Tumor cell proliferation assay (CellTiter-Glo, 72 h), KPL-4; format: cell-based; conditions: KPL4, 72h drug exposure
Method: Biological Assay 4.0: Tumor Cell Proliferation Assays
Compounds were tested in a cell-based assay that measures the capacity of the compounds to inhibit tumour cell proliferation following a 72h drug exposure. Cell viability is determined using CellTiter-Glow® (CTG, Promega, cat# G7571/2/3). The CellTiter-Glo® Luminescent Cell Viability Assay is a homogeneous method to determine the number of viable cells in culture. Detection is based on using the luciferase reaction to measure the amount of ATP from viable cells. The amount of ATP in cells correlates with cell viability. Within minutes after a loss of membrane integrity, cells lose the ability to synthesize ATP, and endogenous ATPases destroy any remaining ATP; thus the levels of ATP fall precipitously.
For each cell line assayed, cells were plated onto a separate plate for determination of […] at t=0 hour and t=72 hour time points. Following overnight incubation at 37° C., chemiluminescence values for the t=0 samples were determined after adding 10 μl medium and 100 μl CTG solution according to manufacture protocol. Plates for the t=72 hour time points were treated with compounds diluted into growth medium at ten times final concentration added in 10 μL to the cell culture plate. Cells were then incubated for 72 hours at 37° C. Chemiluminescence values for the t=72 hour samples were determined. […]

Row | Compound | IC50 [1] [nM] | IC50 [2] [nM]
1 | NC1(c2ccc(-c3nc4cc(-c5ccccn5)ccn4c3-c3ccccc3)cc2)CCC1 [Example 2-111] | 204 | 
2 | NC1(c2ccc(-c3nc4cc(-c5cnc[nH]5)ccn4c3-c3ccccc3)cc2)CCC1 [Example 2-115] | 212 | 
3 | NC1(c2ccc(-c3nc4ccc(Cl)cn4c3-c3ccccc3)cc2)CCC1 [Example 2-140] | 36 | 
4 | COc1cc(OC)c2nc(-c3ccc(C4(N)CCC4)cc3)c(-c3ccccc3)n2c1 [Example 2-146] | 23 | 
5 | NC(=O)Nc1ccc2nc(-c3ccc(C4(N)CCC4)cc3)c(-c3ccccc3)n2c1 [Example 2-157] | 256 | 

Now from value to compound:

Row | IC50 [1] [nM] | IC50 [2] [nM] | Compound
6 | 219 |  | NC1(c2ccc(-c3nc4ccc(-c5cn[nH]c5)cn4c3-c3ccccc3)cc2)CCC1 [Example 2-132]
7 | 2320 |  | Cn1cncc1-c1ccc2nc(-c3ccc(C4(N)CCC4)cc3)c(-c3ccccc3)n2c1 [Example 2-133]
8 |  | 2100 | Cn1cc(-c2ccc3nc(-c4ccc(C5(N)CCC5)cc4)c(-c4ccccc4)n3c2)cn1 [Example 2-134]
